Source: PubChem BioAssay
Most compounds without a hit are left out; they make up all but 2.8% or so of the library.
miR-122 sensor: miR-122 inhibition in Huh7 cells | Huh7 miR-122 Renilla luciferase sensor, 48 h; neutral wells = 0, positive control = 100 | activation (reporter increase), % at 12.5 µM | 340,000 compounds, 0.3% hits;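 active means mean replicate activation score at least 90 and every replicate individually at or above 90; inconclusive means only one of the two criteria met; inactive means neither criterion met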;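 further: higher luciferase means less miR-122 activity so hits act as miR-122 inhibitors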
esBAF inh: SWI/SNF esBAF complex inhibition; mouse ES cells, Bmi1-luciferase knock-in reporter, 24 h; 100% = twice the neutral-well signal; 350,000 compounds, 2% hits; reporter increase, % at 12.5 µM; in the data active means activation above about 40%; inconclusive means no clear call, values can overlap the other calls;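 further: 0% = median of the plate's neutral control wells and 100% = double that signal; a rise in the Bmi1 reporter signal indicates esBAF inhibition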
MITF TRPM1 HTS: activators of MITF-driven TRPM1 promoter activity in SK-MEL-5 cells | activation, % at 12.5 µM | 300,000 compounds, 0.75% hits | SK-MEL-5 TRPM1-promoter luciferase, 24 h; % of positive control, neutral wells = 0;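 active means mean activation of at least 80% with every replicate also reaching 80%; inconclusive means mean reaches 80% but some replicate falls short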;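 further: 0% = neutral control wells and 100% = parthenolide positive control wells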
Wnt act: activators of Wnt/beta-catenin signaling; Wnt/beta-catenin reporter cell assay, activator, plate reader; activation, % at 9.35 µM; 300,000 compounds, 1.2% hits; in the data active means activation above about 30%, passing the limit was not always enough; inconclusive means no clear call, values can overlap the other calls;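 further: 0% = neutral control wells and 100% = positive control wells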
PglD DTNB: PglD (C. jejuni) enzyme inhibition; purified PglD enzyme, DTNB colorimetric CoA detection; inhibition, % at 12.5 µM; 360,000 compounds, 0.098% hits; in the data active means inhibition above about 16%, passing the limit was not always enough; inconclusive means no clear call, values can overlap the other calls
Yeast UUG start: modulators of yeast start codon fidelity, primary screen, whole organism, S. cerevisiae, single point, plate reader | AID 602363, 2012 | S. cerevisiae UUG-firefly luciferase reporter, luminescence/redox ratio | activity score, % at 18.7 µM | hit rate 0.13% among 350,000;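 active = replicate mean at a twofold rise or more, about +100% in these data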;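 also: firefly luciferase made from a UUG start codon reports start codon fidelity; reporter light over untreated wells divided by growth signal over untreated wells; some hits fall short of that in this replicate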
* hit, by the source's call; ? = inconclusive; . = no result given; [ ] = another dose, or the depositor's remark.

Values run as follows: miR-122 sensor, esBAF inh, MITF TRPM1 HTS, Wnt act, PglD DTNB, Yeast UUG start
- Cc1cc(=O)oc2cc(OCC(=O)Nc3nccs3)ccc12
    2, 17, 53, 38*, 2, -9
- Cc1c(C)c2ccc(OCC(=O)Nc3nccs3)cc2oc1=O
    1, -45, -11, 22, 5, -41
- C[C@H]1CCCCO[C@@H](CN(C)C(=O)Nc2ccc(C(F)(F)F)cc2)[C@@H](C)CN([C@@H](C)CO)C(=O)c2cc(NC(=O)Nc3ccccc3)ccc2O1
    0[16.7 µM], -6, ., ., 1, -10
- COC(=O)c1c(-c2ccc(OC)cc2)sc2ccc(-c3ccc4c(c3)OCO4)cc12
    0, -1, 15, 2, 0, -17
- COC(=O)c1c(-c2ccc(OC)cc2)sc2ccc(OC)cc12
    9, 46*, 67, 42*, -1, 5
- CC(C)CC(=O)Nc1cccc(-c2nc3ccccc3[nH]2)c1
    158*, ., 23, 5, -3, -3
- O=C(COc1ccccc1)Nc1cccc(-c2nn[nH]n2)c1
    -1, -10, -1, -2, 7, -16
- O=C(COc1ccccc1)Nc1cccc(-c2nc3cc4ccccc4cc3[nH]2)c1
    0, 6, 106*, ., -6, -22
- CC(=O)Nc1cccc(-c2nc3ccccc3[nH]2)c1
    51, 15, 2, 0, -2, -11
- CC(Oc1ccccc1)C(=O)Nc1cccc(-c2nc3ccccc3[nH]2)c1 (stereo unspecified)
    -2, 46*, ., ., 3, -17
- O=C(C[C@@H]1C[C@H]2c3cc(NC(=O)Nc4ccccc4)ccc3O[C@H]2[C@@H](CO)O1)NCC1CC1
    -3[16.7 µM], 3, ., ., 3, -7
- CCCc1nn(C)c(C(=O)Nc2ccc(CC)cc2)c1Cl
    ., ., 8, ., ., .
- CCCc1nn(C)c(C(=O)Nc2ccc(C)c(C)c2)c1Cl
    -4, 70*, 62, 12, 13, -11
- CCC(=O)N(C)C[C@@H]1Oc2ncc(C#CCC(C)C)cc2C(=O)N([C@@H](C)CO)C[C@H]1C
    2[16.7 µM], 4, ., ., -1, 4
- COc1cc2sc3ccc(-c4ccc5[nH]ccc5c4)cc3c(=O)c2cc1OC
    -6, 51*, 130*, 12, -3, -8
- CC(C)NC(=O)Nc1ccc2c(c1)C(=O)N([C@@H](C)CO)C[C@@H](C)[C@@H](CN(C)S(C)(=O)=O)OCCCC[C@@H](C)O2
    -3[16.7 µM], -5, ., ., -1, 12
- CCOc1ccc(OCc2ccc(C(=O)Nc3ccc(Cl)cn3)o2)cc1
    -2, 11, 16, 4, 0, -9
- O=C(Nc1ccccn1)c1ccc(COc2ccccc2Cl)o1
    -9, 64*, ., 5, -5, -11
- O=C(Nc1ccc(Cl)cn1)c1ccc(COc2ccccc2Br)o1
    4, 88*, 52, 1, 8, -7
- COc1ccc(-n2nc(C(=O)NCC(=O)N3CCN(c4ccccc4)CC3)c3ccccc3c2=O)cc1OC
    -5, 45*, 47, 14, 5, -8
- COc1ccc(-n2nc(C(=O)NCC(=O)N3CCCC3)c3ccccc3c2=O)cc1Cl
    ., 59*, ., 1, -3, -7
- COc1cccc(OCc2cc(C(=O)N3CCCC3c3ccccn3)no2)c1 (stereo unspecified)
    -2, 60*, 80, 28, 2, -15
- CCC1C(=O)NCCN1C(=O)c1cc(COc2cc(C)ccc2C)on1 (stereo unspecified)
    -6, 2, 7, 0, 4, 11
- COc1cccc(OCc2cc(C(=O)N3CCN(C4CCCC4)CC3)no2)c1
    ., 4, 18, 5, 3, -9
- COc1cccc(OCc2cc(C(=O)N3CCNC(=O)C3Cc3ccccc3)no2)c1 (stereo unspecified)
    4, 51*, 58, 7, 0, 15
- N#Cc1ccc(-c2cccnc2)nc1SCC(=O)c1ccccc1
    -3, 63*, ., 3, 3, -11
- C[C@H](CO)N1C[C@H](C)[C@@H](CN(C)Cc2ccc(C(F)(F)F)cc2)Oc2ccc(NC(=O)CCC(F)(F)F)cc2CC1=O
    -3[16.7 µM], 0, ., ., 1, -3
- C[C@@H]1CN([C@H](C)CO)C(=O)c2cccc(NC(=O)C3CC3)c2O[C@H]1CN(C)C(=O)Nc1ccccc1
    11[16.7 µM], -1, ., ., -3, -13
- Oc1ccc(-c2nccc(-c3ccc(F)cc3)n2)cc1
    -3, ?, 92*, 17, -7, -7
- O=C1NCCN/C1=C\C(=O)c1ccc(Br)cc1
    -1, ., ., 63*, -6, -9
- O=C1NCCN/C1=C\C(=O)c1ccccc1
    -1, 18, 13, 0, 1, -1
- Cc1ccccc1OCc1nnc2c3cnn(C)c3ncn12
    -1, 54*, 90*, ., -4, -16
- Cc1ccccc1OCc1nc2ccccc2c(=O)n1N
    -2, 28, ., -4, -1, 1
- O=C(C[C@@H]1CC[C@@H]2[C@H](COC[C@@H](O)CN2Cc2ccccc2F)O1)NC1CCC1
    -1[16.7 µM], 6, ., ., -2, -8
- O=C(c1ccc(C(F)(F)F)cc1)n1ccc(-c2cccs2)n1
    ., ., -2, 42*, ., .
- O=C(c1ccc(F)cc1)n1ccc(-c2cnc(-c3ccccc3)s2)n1
    0, 27, 67, ., -4, -12
- C[C@@H]1CCCCO[C@@H](CN(C)C(=O)Nc2ccc3c(c2)OCO3)[C@@H](C)CN([C@@H](C)CO)C(=O)c2cc(NC(=O)C3CCCCC3)ccc2O1
    15[16.7 µM], -3, ., ., -2, -8
- C[C@@H]1CCCCO[C@H](CN(C)S(=O)(=O)c2cccs2)[C@H](C)CN([C@@H](C)CO)C(=O)c2cc(N(C)C)ccc2O1
    4[16.7 µM], -3, ., ., 2, 0
- CC(/C=C/c1ccccc1)=N\NC(=S)NC(C)C
    -2, 17, 33, 3, 1, -35
- CC(/C=C/c1ccccc1)=N\NC(N)=S
    -5, 50*, ., 28, 7, -26
- COc1cccc(OC)c1-c1nn2c(-c3ccco3)nnc2s1
    -1, 54*, ., ., -2, -33
- CCCNC(=O)[C@H]1[C@H](CO)[C@H]2Cn3c(cccc3=O)[C@H]2N1Cc1ccccn1
    1[16.7 µM], -1, ., ., -4, .
- O=c1c(-c2ccc3c(c2)OCCO3)coc2cc(OC3OC(CO)C(O)C(O)C3O)ccc12 (stereo unspecified)
    ., -4, 94*, 42*, -9, 1
- Cc1cc(=O)oc2cc(O[C@@H]3O[C@H](CO)[C@@H](O)[C@H](O)[C@H]3O)ccc12
    -1, 1, -3, 2, -2, -23
- COc1ccc(-c2coc3cc(O[C@@H]4O[C@H](CO)[C@@H](O)[C@H](O)[C@H]4O)ccc3c2=O)cc1
    ., 64*, 57, ?, -1, -9
- COc1cc2c(=O)c(-c3ccc(O)cc3)coc2cc1OC1OC(CO)C(O)C(O)C1O (stereo unspecified)
    -3, 36, 3, 7, -3, -10
- CCOC(=O)CSc1nc2ccccc2c(=O)n1NC(=O)c1ccccc1
    7, 11, 49, 38*, -3, -1

Three entries already listed, ordered by the number in miR-122 sensor, descending.
Values run as follows: miR-122 sensor, esBAF inh, MITF TRPM1 HTS, Wnt act, PglD DTNB, Yeast UUG start
- CCOC(=O)CSc1nc2ccccc2c(=O)n1NC(=O)c1ccccc1
    7, 11, 49, 38*, -3, -1
- Cc1cc(=O)oc2cc(O[C@@H]3O[C@H](CO)[C@@H](O)[C@H](O)[C@H]3O)ccc12
    -1, 1, -3, 2, -2, -23
- COc1cc2c(=O)c(-c3ccc(O)cc3)coc2cc1OC1OC(CO)C(O)C(O)C1O (stereo unspecified)
    -3, 36, 3, 7, -3, -10

Molecules above that have bromine, in the order listed:
Values run as follows: miR-122 sensor, esBAF inh, MITF TRPM1 HTS, Wnt act, PglD DTNB, Yeast UUG start
- O=C(Nc1ccc(Cl)cn1)c1ccc(COc2ccccc2Br)o1
    4, 88*, 52, 1, 8, -7
- O=C1NCCN/C1=C\C(=O)c1ccc(Br)cc1
    -1, ., ., 63*, -6, -9
